We go through 1 substance from patent publication US20020103123A1.

Sequences of proteins named here, by UniProt entry; tags and fusion partners are left off.
UniProt P49146, whole entry: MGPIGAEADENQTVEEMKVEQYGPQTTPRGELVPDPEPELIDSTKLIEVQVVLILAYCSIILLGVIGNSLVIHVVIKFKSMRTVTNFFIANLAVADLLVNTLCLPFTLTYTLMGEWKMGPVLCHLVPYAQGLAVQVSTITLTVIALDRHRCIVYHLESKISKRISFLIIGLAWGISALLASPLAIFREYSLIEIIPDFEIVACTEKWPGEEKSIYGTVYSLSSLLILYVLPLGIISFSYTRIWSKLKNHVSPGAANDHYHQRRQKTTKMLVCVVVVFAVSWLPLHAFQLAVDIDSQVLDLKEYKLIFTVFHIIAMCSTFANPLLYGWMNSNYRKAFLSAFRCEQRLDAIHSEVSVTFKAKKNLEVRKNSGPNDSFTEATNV

For this experiment, the target named is human Y2 receptor (human) (UniProt P49146). Nature of the experiment: 125I-PYY displacement, COS-7 membranes.

In general, Ki refers to the equilibrium dissociation constant of an inhibitor or competing ligand from its target. Higher therefore signals weaker binding. As to “rat/human NPY, P01303 (peptide; carboxy terminal amide; other documents disagree on this pair)”, the Ki came out at 0.74 nM.
